# Measured values published in patent US8278453B2, “Quinolizidinone M1 receptor positive allosteric modulators” (Merck Sharp & Dohme Corp., priority 2008, dated 2012).
# The chains behind the UniProt entries cited, without tags or fusion partners.
# UniProt P11229, whole entry: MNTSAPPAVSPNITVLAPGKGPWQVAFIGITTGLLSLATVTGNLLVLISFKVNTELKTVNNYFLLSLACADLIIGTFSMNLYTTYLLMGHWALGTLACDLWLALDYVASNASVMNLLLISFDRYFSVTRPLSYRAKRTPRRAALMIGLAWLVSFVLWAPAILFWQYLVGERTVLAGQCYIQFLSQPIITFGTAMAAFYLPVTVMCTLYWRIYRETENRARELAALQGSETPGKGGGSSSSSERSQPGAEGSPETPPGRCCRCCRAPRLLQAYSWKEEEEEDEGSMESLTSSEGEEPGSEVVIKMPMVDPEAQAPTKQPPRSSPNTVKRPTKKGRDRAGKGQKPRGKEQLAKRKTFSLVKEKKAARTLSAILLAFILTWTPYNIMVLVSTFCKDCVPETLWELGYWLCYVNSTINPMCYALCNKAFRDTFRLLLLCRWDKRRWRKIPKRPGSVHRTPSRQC
# Target: acetylcholine muscarinic M1 receptor (Homo sapiens, UniProt P11229)
# Assay: muscarinic M1 FLIPR intracellular calcium assay (positive allosteric modulation, EC20 acetylcholine)
# Details: read-out: IP Value; inflection point from FLIPR values; CHOnfat/hM1 cells; 4 min preincubation, then EC20 acetylcholine (3 nM final)
# Description: The assay studies the effect of one or several concentrations of test compounds on basal or acetylcholine-stimulated Ca^2+ levels using FLIPR.
# Compounds are prepared and subjected to a preincubation period of 4 min. Thereafter, a single EC20 concentration of acetylcholine is added to each well (3 nM final). The intracellular Ca^2+ level of each sample is measured and compared to an acetylcholine control to determine any modulatory activity.
# Cells: CHOnfat/hM1, hM2, hM3 or hM4 cells are plated 24 hr before the assay at a density of 18,000 cells/well (100 μL) in a 384 well plate. CHOnfat/hM1 and CHOnfat/hM3 Growth Medium: 90% DMEM (Hi Glucose); 10% HI FBS; 2 mM L-glutamine; 0.1 mM NEAA; Pen-Strep; and 1 mg/ml Geneticin, are added. For M2Gqi5CHOnfat and M4Gqi5CHOnfat cells, an additional 600 μg/ml hygromycin is added.
# Equipment: 384 well plate, 120 μL addition plate; 96-well Whatman 2 ml Uniplate Incubator, 37° C., 5% CO2; Skatron EMBLA-384 Plate Washer; Multimek Pipetting System; Genesis Freedom 200 System; Mosquito System; Temo Nanolitre Pipetting System; and FLIPR^384 Fluorometric Imaging Plate Reader System are used.
# Buffers. Assay Buffer: Hanks Balanced Salt Solution, with 20 mM Hepes, 2.5 mM Probenecid (Sigma P-8761) first dissolved in 1N aqueous NaOH, 1% Bovine Serum Albumin (Sigma A-9647). Dye Loading Buffer: Assay Buffer plus 1% Fetal Bovine Serum and Fluo-4AM/Pluronic Acid Mixture. 2 mM Fluo-4AM ester stock in DMSO (Molecular Probes F-14202) Concentration of 2 μM in buffer for a final concentration of 1 μM in Assay. 20% Pluronic Acid Solution stock, with a concentration of 0.04% in Buffer, 0.02% in Assay.
# 65 μl of 2 mM Fluo-4AM are mixed with 130 μL of 20% Pluronic Acid. The resulting solution and 650 μL FBS is added to the assay buffer for a total volume of 65 mL. Positive Controls: 4-Br-A23187: 10 mM in DMSO; final concentration 10 μM. Acetylcholine: 10 mM in water, working stock at both 20 μM and 30 μM in assay buffer, final concentration of 10 μM. This is used to check the maximum stimulation of the CHOK1/hM1 cells. 20 μM (2×) acetylcholine is added in the preincubation part of the assay, and the 30 μM (3×) stock is added in the second part. (EC20)Acetylcholine: 10 mM in water, working stock of 9 nM (3×), and final concentration in assay is 3 nM. This is used after the preincubation with test compounds. Addition of the EC20 Acetylcholine to each well with a test compound will ascertain any modulator activity. 24 wells contain 3 nM Acetylcholine alone as a control.
# Determining Activity of Putative Compounds:
# Screening Plate: Compounds are titrated in 96-well plates (columns 2-11), 100% DMSO, started at a concentration of 15 mM (150× stock concentration), and 3-fold serial dilutions using Genesis Freedom200 System. Four 96-well plates are combined into a 384-well plate using Mosquito Nanolitre Pipetting System by transferring 1 μl of serial diluted compounds to each well, and 1 mM acetylcholine (100× stock concentration) were added as a control. Using Temo, 49 μl assay buffer is added to each well of the 384-well plate right before assay.
# In a 96-well Whatman 2 ml Uniplate, 9 nM Acetylcholine (3×) is pipetted into wells corresponding to the screening compounds and into control wells. […]
# After 60 min, the cells are washed three times with 100 μL of buffer, leaving 30 μL of buffer in each well. […] A signal test to check background fluorescence and basal fluorescence signal is performed. […]
row,Compound,pEC50
1,O=C(O)c1cc(Cc2ccc(-c3ccccn3)cc2)c2ccccn2c1=O,7.21
2,O=C(O)c1cc(Cc2ccc(-c3ccncc3)cc2)c2ccccn2c1=O,7.13
3,O=C(O)c1cc(Cc2ccc(-c3ccncc3)cn2)c2ccccn2c1=O,7.64
4,O=C(O)c1cc(Cc2ccc(-c3cn[nH]c3)cc2)c2ccccn2c1=O,7.54
5,O=C(O)c1cc(Cc2ccc(-c3cccnc3)cc2)c2ccccn2c1=O,7.12

# pEC50: −log10 of the molar value.
